The text below walks through data of PubChem BioAssay AID1885 (Broad Institute, 2009).

The list shows a part of the results, in another mix than the full data. Some salts or complexes appear as unconnected parts, following the source record. Active and inactive are the calls of the source.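 The calls were made as follows: active = mean inhibition across valid replicates above about 55% (limit read from the data); inconclusive = mean below that limit but half or more replicates reach it; inactive = mean below it, under half of replicates reach it.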

This test in a line: Trypanosoma cruzi replication blockers in host cells – luminescence, NIH3T3 host cells, primary screen (AID 1885).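 Also: signal also drops with host cell toxicity which is not excluded here; 0% = plate median of DMSO wells and 100% = zero luminescence signal; higher percent means less beta-gal luminescence so fewer parasites.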 The note with it: T. cruzi beta-gal in NIH3T3, luminescence, 90 h; hits give high values; concentration not given here. The procedure, abridged: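 Incubation – ≥90 h infection period, 3 h prior cell attachment · System – NIH/3T3 fibroblasts plus reporter T. cruzi · Doses – compound pinned at 50 nL/well, DMSO · Read-out basis – percent inhibition of parasite-derived β-gal signal · Signal – luminescent β-galactosidase signal after 60 min lysis · Also added – 5000 T. cruzi trypomastigotes/well · Medium – Low-serum DMEM with 2% FBS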
As for `COc1ccc(OP(C)(=O)Nc2ccc(SC(F)(F)F)cc2)cc1` (stereo not drawn), the inhibition was inactive: 1.61%.

For the compound `CCOC(=O)c1ccc(NP(C)(=O)Oc2ccc(F)cc2)cc1` (stereo not drawn), the inhibition is inactive: -38.8%. As for `c1ccc(-c2nn[nH]n2)c(-c2nn[nH]n2)c1`, the inhibition was inactive: -7.2%. In the case of `Cc1ccc(NP(=O)(Oc2cccc(C)c2)Oc2cccc(C)c2)nc1`, the inhibition was inactive: 5.6%. Consider `CCOC(=O)NC(Sc1ccccc1)C(Cl)(Cl)Cl` (stereo not drawn), for which the inhibition is inactive: -13.3%. The result for `CCNC(=S)/N=C(\N)N[N+](=O)[O-]` reads inactive: -4.22%. The result for `O=C(NC1CCS(=O)(=O)C1)NP(=S)(Oc1ccccc1)Oc1ccccc1` (stereo not drawn) reads inactive: 10.2%; that for `Cc1ccccc1OP(=O)(Nc1ccccn1)Oc1ccccc1C`, inactive: 1.03%. Consider `CCCCCOc1ccc(NP(C)(=O)Oc2ccc(Cl)cc2Cl)cc1` (stereo not drawn), for which the inhibition was inactive: 16.5%. With `O=[N+]([O-])c1cc([N+](=O)[O-])c(OC2CCCCC2O)c([N+](=O)[O-])c1` (stereo not drawn), the inhibition is inactive: -14.1%. Regarding `CP(=O)(Nc1ccccc1)Oc1ccc(F)cc1` (stereo not drawn), the inhibition was inactive: 6.35%. Take `O=C(OC1CN2CCC1CC2)c1ccccc1` (stereo not drawn): the inhibition is inactive: -24%.

For the compound `CCN(CC)CCCOC(=O)C(O)(c1ccccc1)C1CCCCC1` (stereo not drawn), the inhibition is inactive: -7.14%. The figure for `CCC(=O)N1C2C3N(C(=O)CC)C1C1N(C(=O)CC)C(C(N1C(=O)CC)N3C(=O)CC)N2C(=O)CC` is inactive: -17.1%. As to `COC(=O)c1cc2c(s1)N=C(c1ccccc1)N(C)P2(=O)N1CCOCC1` (stereo not drawn), the inhibition is inactive: -15.5%. As to `CC(=O)NC(SC(=S)N(CC(C)C)CC(C)C)C(Cl)(Cl)Cl` (stereo not drawn), the inhibition was inactive: 14.6%. The result for `CC(C)(C)C(=O)NC(Sc1ccccc1)C(Cl)(Cl)Cl` (stereo not drawn) reads inactive: -5.34%. `CC(C)c1ccc(OP(C)(=O)Nc2ccc(SC(F)(F)F)cc2)cc1` (stereo not drawn): the inhibition was inactive: 47.7%. As for `CP(=O)(Nc1ccccc1F)Oc1ccccc1` (stereo not drawn), the inhibition is inactive: 6.62%. With `O=P1(Nc2nc3ccc(Cl)cc3s2)COc2ccccc2O1` (stereo not drawn), the inhibition is inactive: 6.03%. With `CCOc1ccc(C2=NCC(CBr)S2)cc1` (stereo not drawn), the inhibition was inactive: -2.15%.

As to `CC(=O)Nc1ccc([As](=O)(O)O)c(O)c1`, the inhibition is inactive: -7.07%. With `COc1ccc2c(c1O)-c1c(O)c(OC)cc3c1[C@H](C2)[N+](C)(C)CC3.O=[N+]([O-])c1cc([N+](=O)[O-])c([O-])c([N+](=O)[O-])c1[O-]`, the inhibition is inactive: -16.7%.

With `CC(=O)Nc1ccc(Oc2c([N+](=O)[O-])cc([N+](=O)[O-])cc2[N+](=O)[O-])cc1`, the inhibition was inactive: 4.95%. In the case of `O=C(OCCN1CCN(CCOCc2ccccc2)CC1)C(O)(c1ccccc1)c1ccccc1`, the inhibition was inactive: 16.5%.

On to `C[C@H]1OP(=O)(Oc2ccccc2)C[C@@H]2O[C@@H]21` (stereo partly drawn), for which the inhibition was inactive: -27.5%. Consider `C[C@@H]1C=CCP(=O)(Oc2ccccc2)O1` (stereo partly drawn), for which the inhibition was inactive: -17.4%. With `CC(=O)c1ccc(N2CC2c2ccncc2)cc1` (stereo not drawn), the inhibition is inactive: -8.12%. With `O=C(OC1CN2CCC1CC2)c1ccc([N+](=O)[O-])cc1` (stereo not drawn), the inhibition was inactive: 19.8%.

Turning to `c1nnnn1CCn1cnnn1`, the inhibition was inactive: 7.92%.

Turning to `CCOP(C)(=S)SCC(=O)NC(C)(CC)C(=O)O` (stereo not drawn), the inhibition is inactive: -14.3%. Turning to `CC(C)C(=O)NC(Sc1ccccc1)C(Cl)(Cl)Cl` (stereo not drawn), the inhibition is inactive: -20.9%.

Consider `O=P(Nc1nccs1)(c1ccccc1)c1ccccc1`, for which the inhibition was inactive: -20.4%. In the case of `CP(=O)(Nc1ccc(SC(F)(F)F)cc1)Oc1ccc(F)cc1` (stereo not drawn), the inhibition is inactive: -0.866%. Turning to `Cc1ccccc1NP(C)(=O)Nc1ccccc1C`, the inhibition is inactive: -7.58%. `CP(=O)(Nc1ccc2c(c1)OCCO2)Oc1ccccc1` (stereo not drawn): the inhibition was inactive: -8.24%. The figure for `COc1ccc(NP(C)(=O)Oc2ccccc2OC)cc1` (stereo not drawn) is inactive: -2.42%. Consider `CN(C)CCOC(=O)C(O)(c1ccccc1)C1CCCCC1` (stereo not drawn), for which the inhibition was inactive: -1.76%.

For `O=P(Nc1nc2ccccc2s1)(c1ccccc1)c1ccccc1`, the inhibition was inactive: 0.341%.

For the compound `C[C@H]1OP(=O)(Oc2ccccc2)[C@H](O)[C@H](O)[C@H]1N=[N+]=[N-]` (stereo partly drawn), the inhibition was inactive: -19.7%. For `O=P(Nc1ccccn1)(c1ccc(Br)cc1)c1ccc(Br)cc1`, the inhibition is inactive: 35.7%. For `CN(C)C1(CNC(=O)c2ccc(Cl)c(S(N)(=O)=O)c2)CCCCC1`, the inhibition is inactive: 12.5%. As for `COc1ccc(OP(C)(=O)Nc2cccc(Br)c2)cc1` (stereo not drawn), the inhibition was inactive: -15.8%. For `O=C(OC1CN2CCC1CC2)c1cccc(Cl)c1` (stereo not drawn), the inhibition is inactive: 1.88%. `C(Cc1nn[nH]n1)Cc1nn[nH]n1`: the inhibition was inactive: -13.2%.

Regarding `Nc1ccc([As](=O)(O)c2ccc([N+](=O)[O-])cc2)cc1`, the inhibition is inactive: -16.1%.

Turning to `O=[As](O)(c1ccccc1)c1ccc(O)cc1`, the inhibition is inactive: 2.26%. The figure for `Cc1cc(-c2cccc3ccccc23)c(C)cn1.O=[N+]([O-])c1cc([N+](=O)[O-])c(O)c([N+](=O)[O-])c1` is inactive: -21%; for `O=[N+]([O-])c1cc([N+](=O)[O-])c(NCC2CCS(=O)(=O)C2)c([N+](=O)[O-])c1` (stereo not drawn) it is active: 61%. Regarding `O=[N+]([O-])c1ccc(O)c(/C=N/Nc2ccc([N+](=O)[O-])cc2[N+](=O)[O-])c1`, the inhibition was inactive: -10.3%. For the compound `CC(=O)NC(SC(=S)N(C)C)C(Cl)(Cl)Cl` (stereo not drawn), the inhibition was inactive: 11.8%.

In the case of `O=[N+]([O-])c1ccc(OP2(=O)COCCO2)cc1` (stereo not drawn), the inhibition is inactive: -7.4%. The figure for `O=[N+]([O-])c1ncn(CCn2cnc([N+](=O)[O-])n2)n1` is inactive: 7.33%; for `CP(=O)(OC12CC3CC(CC(C3)C1)C2)OC12CC3CC(CC(C3)C1)C2` it is inactive: 36%.

For the compound `CCOC(=O)c1ccc(NP(C)(=O)Oc2ccc(Cl)cc2)cc1` (stereo not drawn), the inhibition is inactive: -22%. Consider `O=C(Nc1cc([As](=O)(O)O)ccc1O)c1ccccc1`, for which the inhibition is inactive: -7.28%. As to `Nc1ccc2c(ccc3cccnc32)n1.O=[N+]([O-])c1cc([N+](=O)[O-])c(O)c([N+](=O)[O-])c1`, the inhibition is inactive: 4.12%.

As for `O=C(O)CNc1ccc([As](=O)(O)O)cc1`, the inhibition was inactive: -7.73%. Regarding `O=[N+]([O-])c1cccc(NC2=NCC(CBr)S2)c1` (stereo not drawn), the inhibition was inactive: 0.217%. `O=[N+]([O-])c1ncn(CCn2ncnc2[N+](=O)[O-])n1`: the inhibition was inactive: 5.1%.

Regarding `CC(C)(C)C(=O)NC(Sc1ccncn1)C(Cl)(Cl)Cl` (stereo not drawn), the inhibition is inactive: -11.9%. `CP(=O)(Oc1ccccc1)N1CCOC1=O` (stereo not drawn): the inhibition was inactive: -29.6%. Regarding `Cc1ccc(NP(=O)(Oc2ccccc2)Oc2ccccc2)nc1`, the inhibition was inactive: 1.41%. With `CCc1ccc(OP(C)(=O)Nc2cccnc2)cc1` (stereo not drawn), the inhibition is inactive: -11.9%. In the case of `CCc1nc2c(n1)c1c(non1O)c1c2no[n+]1[O-]`, the inhibition was inactive: -53.2%. On to `O=[N+]([O-])c1cccc2n[nH]nc12`, for which the inhibition was inactive: 1.9%. `CC(=O)N1C2C3N(C(C)=O)C1C1N(C(C)=O)C(C(N1C(C)=O)N3C(C)=O)N2C(C)=O`: the inhibition was inactive: -2.32%.

`COc1ccccc1OP(C)(=O)Nc1c(C)n(C)n(-c2ccccc2)c1=O` (stereo not drawn): the inhibition is inactive: -11.1%. `O=C(OCCCN1CCCC1)C(O)(c1ccccc1)C1CCCCC1` (stereo not drawn): the inhibition is inactive: 18.8%. For the compound `CCN(CC)CC(O)COC(=O)C(O)(c1ccccc1)C1CCCCC1` (stereo not drawn), the inhibition is inactive: -3.2%. The figure for `COc1ccc(OP(C)(=O)Nc2ccc(Br)cc2)cc1` (stereo not drawn) is inactive: -29.8%.

With `COc1ccc(C2=NCC(CBr)S2)cc1` (stereo not drawn), the inhibition was inactive: -3.16%. Take `CC1CCN(C(=O)Oc2c(Cl)cc(Cl)c3cccnc23)CC1`: the inhibition was inactive: 15.5%.

In the case of `CN(C)C(=O)c1c([N+](=O)[O-])cc([N+](=O)[O-])cc1[N+](=O)[O-]`, the inhibition is inactive: 43.6%.

Consider `CC(C)=N/N=C(\N)N[N+](=O)[O-]`, for which the inhibition is inactive: -5.25%. Regarding `CN(C)C(=O)OCCc1n(C)cc[n+]1C`, the inhibition is inactive: -4.41%. Consider `CCN(/C(=N/P(=O)(N1CCOCC1)N1CCOCC1)N1CCOCC1)c1ccc(OC)cc1`, for which the inhibition was inactive: -9.79%. Regarding `CP(=O)(Nc1ccc(Cl)cc1)Oc1ccc(F)cc1` (stereo not drawn), the inhibition is inactive: -1.73%.

As for `COc1ccccc1OP(C)(=O)Nc1ccccc1Br` (stereo not drawn), the inhibition was inactive: -6.88%. Turning to `CC(C)(C)c1ccc(OP(C)(=O)O)cc1`, the inhibition is inactive: -16%. The result for `Nc1ccc([As](=O)(O)c2ccc(N)cc2)cc1` reads inactive: -5.1%; that for `C[N+]1=C2C=CC=CC=C2SC12C([N+](=O)[O-])=CC([N+](=O)[O-])=C[C-]2[N+](=O)[O-]` (stereo not drawn), inactive: 2.79%; that for `CN1CCCC(OC(=O)C(c2ccccc2)c2ccccc2)C1` (stereo not drawn), inactive: 8.21%. The figure for `Clc1ccc(Cl)c(NC2=NCC(CBr)S2)c1` (stereo not drawn) is inactive: -3.66%. `CN(C)CCOC(=O)C(O)(c1ccccc1)C1CCCC1` (stereo not drawn): the inhibition is inactive: -8.72%. `COc1ccccc1OP(=O)(Nc1ccc(C)cn1)Oc1ccccc1OC`: the inhibition was inactive: 0.738%.

With `COc1ccc(OP(C)(=O)Nc2ccccn2)cc1` (stereo not drawn), the inhibition is inactive: -10.4%. The result for `Cc1ccc(OP(=O)(Nc2nccs2)Oc2ccc(C)cc2)cc1` reads inactive: 4.65%; that for `COc1ccccc1OP(C)(=O)Nc1ccc(Br)cc1` (stereo not drawn), inactive: -5.94%. Regarding `Cc1ccc(N/C(=N/P(=O)(N2CCOCC2)N2CCOCC2)N2CCOCC2)cc1`, the inhibition is inactive: -3.04%. In the case of `NC(=O)c1cc([N+](=O)[O-])cc([N+](=O)[O-])c1N`, the inhibition was inactive: 6.49%. Turning to `CCc1ccc(OP(C)(=O)O)cc1`, the inhibition was inactive: 1.52%. On to `CP(=O)(Nc1ccccn1)Oc1ccccc1` (stereo not drawn), for which the inhibition was inactive: -4.88%. For the compound `COc1ccccc1OP(C)(=O)Nc1ccc(C)cc1C` (stereo not drawn), the inhibition is inactive: -9.54%.

Regarding `Oc1ccccc1CNc1ccccn1`, the inhibition was inactive: 2.1%. With `O=C(NC(Sc1ccncn1)C(Cl)(Cl)Cl)c1ccccc1` (stereo not drawn), the inhibition is inactive: 0.215%. Regarding `Cc1c2non([O-])c-2c(C)[n+](=O)[n+]1[O-]`, the inhibition is inactive: -9.85%.

With `Cc1c(NP(C)(=O)Oc2ccc(C(C)C)cc2)c(=O)n(-c2ccccc2)n1C` (stereo not drawn), the inhibition was inactive: -5.68%.

As usually defined, the inhibition is the change of the read-out against control, counted positive when it falls.
